Literature values as cited in patent US10857245B2, “Diagnostic imaging agent for early bone metastasis from cancer” (NIHON MEDI-PHYSICS CO., LTD., priority 2015, dated 2020).

Tested on: bone metastasis from breast cancer
Settings: cited from earlier work
[1] = type of bone metastasis decided by CT

2-[^18F]-2-deoxy-D-glucose
combined sensitivity of all sites (89 patients with breast cancer): 80.0% | detection rate of osteoblastic bone metastasis [1]: 55.6% | detection rate of osteolytic bone metastasis [1]: 100%
